Experimental data reported in patent US6358883B1, “Pesticidal and parasiticidal use of 1-aryl-1-(substituted thio, sulfinyl and sulfonyl)-2-nitroethane compounds” (American Cyanamid Company, priority 1998, dated 2002).

Test system: Root-knot nematode, Meloidogyne incognita J2 larvae
Conditions: potted tomato, scored 4 weeks following inoculation
Excerpt: Soil Nematicide Assay Targeting Root-knot Nematode, Meloidogyne Incognita on Potted Tomato
The test compound is solubilized in acetone and diluted with water to the required test concentration. Silty loam soil in a 3 inch pot with a 3-week-old tomato transplant is drenched with the test solution. Four thousand root-knot nematode Meloidogyne incognita J2 larvae are dispensed in a aqueous suspension onto the soil. The pots are kept in the greenhouse and 4 weeks following inoculation of the pots, plant roots are washed free of soil and scored for the degree of root galling using the root-knot galling index identified below.

## CCCSP(=O)(OCC)SCCC [Ethoprophos, reference compound]
Rate 10 ppm soil drench
  Galling Index: 0 (0)
Rate 25 ppm soil drench
  Galling Index: 0^1 (0)
Rate 50 ppm soil drench
  Galling Index: 0^1 (0)

Like-named read-outs stand apart in the source and are kept apart here.
